Data from PMC7994190.

Target: Recombinant mouse VDAC1 (mouse) (UniProt Q60932)

reversal potential of the αSyn-blocked state, 30/150 mM CaCl2 (cis/trans): 8.9 mV
reversal potential of the αSyn-blocked state, 100/500 mM CaCl2 (cis/trans): -27 mV
reversal potential of the αSyn-blocked state, 150/30 mM CaCl2 (cis/trans): -5.5 mV
reversal potential of the αSyn-blocked state, 300/60 mM KCl (cis/trans): -17.7 mV
reversal potential of the αSyn-blocked state, 500/100 mM CaCl2 (cis/trans): 24.8 mV
Substance: Recombinant WT α-synuclein (from UniProt P37840 1-140) (natural protein)
